Assay results: paper PMC7023435 (Pharmaceutics, 2020)

Experiments:
[1] = test system: porcine intestinal tissue; assay: Ex vivo intestinal permeation study in Franz diffusion cells; format: in vitro ADME, pig; conditions: Franz diffusion cell, 150 µg FD70 applied apically (100 µg/mL), with PE:insulin MCs or solutions, 3 h, SEC-HPLC fluorescence, n = 3
[2] = in vivo; cited from earlier work
Description: For overcoming the absorption barrier, PEs have been developed and studied both for paracellular enhancement by tight junction opening and transcellular e ...

Q: Which “FD70 permeation profiles across porcine intestinal tissue” value [1] does the source give for “70 kDa fluorescein isothiocyanate-dextran [FD70]” here?
A: no significant differences

Q: For desmopressin, which oral bioavailability [2] is on record?
A: 0.1–1.2%
